LMNA splice mod – modulators of lamin A splicing; HeLa LMNA splicing GFP/RFP minigene ratio, 48 h; Potency, µM (highest dose often 46.1 µM), for the others: top-dose ratio change, negative = inhibition, usual class: inhibitors; hit rate 0.01% among 200,000; AID 1487; active = well fitted inhibition curve with a large enough effect in the signal ratio, with a control signal flat, not every such curve was filed as active; inconclusive = small, poorly fitted or top-dose-only effect, or effect the other way, or a change in a side signal; the % refers to the signal ratio; note: potency is the fitted concentration of half-maximal effect; % is set by controls: 0 for no effect and ±100 for the full control effect
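S3 HeLa stable clones carrying a lamin A-EGFP splicing minigene plus DsRed2 were seeded at 600 cells/well in Opti-MEM with 2% FBS, pin-dosed and incubated 48 h at 37°C. Acumen cytometry (488 nm) gave the GFP/RFP total-intensity ratio.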
G9a block – G9a (human) methyltransferase inhibition. Q96KQ7. G9a H3K9 monomethylation, AlphaScreen, 2 h. Potency, µM (highest dose often 102 µM), without a hit: at the top dose activity, negative = inhibition, usual class: inhibitors. hit rate 8.8% among 350,000. AID 504332; note: potency is the fitted concentration of half-maximal effect; % is set by controls: 0 for no effect and ±100 for the full control effect; nearly all actives have a fitted effect of over 75% in size
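Methyltransferase reactions run at room temperature for 2 h (20 nM enzyme, 500 nM biotin-H3K9 peptide, 20 uM SAM) after a 15 min compound preincubation; product detected by AlphaScreen beads and anti-H3K9me1 antibody.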
JMJD2E inh – inhibitors of human JMJD2E histone demethylase | JMJD2E catalytic domain, FDH-coupled NADH fluorescence (FDH is formaldehyde dehydrogenase) | AID 2147 | Potency, µM (top dose mostly 57.1 µM), without a hit: top-dose activity change, negative = inhibition, hits mostly inhibitors | hit rate 1.6% among 230,000; active = well fitted inhibition curve with a large enough effect, not every such curve was filed as active; inconclusive = small, poorly fitted or top-dose-only effect, or another doubt; inactive = no such curve, though single readings can be large or run the other way;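 note: potency is the fitted concentration of half-maximal effect; 0% = wells with enzyme and -100% = buffer wells without enzyme; nearly all actives have a fitted effect of over 50% in size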
ALDH1A1 block – ALDH1A1 (human) enzyme inhibition. P00352. Purified ALDH1A1, NADH fluorescence, propionaldehyde substrate. Potency, µM (top dose mostly 75.3 µM), for the others: at the highest dose activity, negative = inhibition, usual class: inhibitors. hit rate 7.3% among 220,000. AID 1030; active = well fitted inhibition curve with a large enough effect, not every such curve was filed as active; inconclusive = small, poorly fitted or top-dose-only effect, or another doubt; inactive = no such curve, though single readings can be large or run the other way;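 note: potency is the fitted concentration of half-maximal effect; plate controls were no enzyme wells and a reference inhibitor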
Sfp PPTase inh – blocks B. subtilis Sfp PPTase activity; Q9F4F7; Biochemical Sfp PPTase activity, qHTS; Potency, µM, for the others: max response, negative = inhibition, most hits filed as inhibitors; actives 3.5% (n = 310,000); AID 1490; active = well fitted inhibition curve with a large enough effect; inconclusive = small, poorly fitted or top-dose-only effect, or another doubt; inactive = no such curve, though single readings can be large or run the other way;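 also: the enzyme is Sfp with the accession as filed and its product quenches rhodamine fluorescence; potency is read from the fitted curve at half-maximal effect; 0% = enzyme reaction without inhibitor and -100% = no enzyme wells; top concentration of the series not given in the record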
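Buffer: 50 mM Hepes-Na pH 7.6, 10 mM MgCl2, 0.01% Nonidet P-40, 0.01% BSA. Enzyme 15 nM, pre-exposed to compound 15 min; substrates then added and fluorescence change tracked over 30 min.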
miR-21 reporter – raises the signal of a miR-21 reporter | HeLa miR-21 FLuc reporter, luciferase, 48 h | Potency, µM (doses to about 38.3 µM), for the others: at the highest dose reporter change, positive = more light | 340,000 tested, under 10 active | AID 2288; active = well fitted rising curve with a large enough effect; inconclusive = small, poorly fitted or top-dose-only effect; inactive = no such curve, though single readings can be large or run the other way;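 also: % of control where 0% means no effect; miR-21 action dims this reporter so a rising signal means less miR-21 action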
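Compounds were titrated across several concentrations (up to approximately 40 uM) and incubated 48 hours with HeLa miR-21-FLuc reporter cells (miR-21 target sequence downstream of FLuc, endogenous miR-21). Readout was firefly luciferase luminescence after lytic detection reagent.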
* marks the source's active call; other numbers are inactive results; u = inconclusive; x = no result; [ ] = remark or other dose. Hits are enriched below; roughly 13% of the tested compounds scored in any of these assays. Unless noted, calls come from the whole dose curve; as a rule, active = well fitted curve in the direction sought with a large enough effect; inconclusive = small, poorly fitted or top-dose-only effect, or another doubt; inactive = no such curve, though single readings can be large; an effect the other way counts as inactive or inconclusive.

Labels used below – A = LMNA splice mod; B = G9a block; C = JMJD2E inh; D = ALDH1A1 block; E = Sfp PPTase inh; F = miR-21 reporter
(1) O=C(Cc1ccccc1)Nc1nc2ccccc2[nH]1
  A: 14.7%	B: -32.4%	C: 6.9%	D: 17.8µM*	E: 20.9%	F: -27.8%
(2) CC(=O)Nc1nc2ccccc2[nH]1
  A: u	B: 1.5%	C: -21.0%	D: 3.9%	E: 17.4%	F: -1.7%
(3) O=C(Cc1c[nH]c2ccccc12)Nc1nc2ccccc2[nH]1
  A: 5.1%	B: 79.4µM*	C: -3.2%	D: 5.1%	E: 4.8%	F: -32.0%
(4) Cc1oc(-c2ccc(C(=O)Nc3cccc(C(F)(F)F)c3)cc2)nc1CSc1ccccc1
  A: x	B: -0.8%[59 µM]	C: x	D: x	E: x	F: u
(5) CCC1=NN2C(=N)/C(=C\c3cccn3-c3ccc(Br)cc3)C(=O)N=C2S1
  A: x	B: u	C: -4.5%	D: u	E: 20.4%	F: 0.2%
(6) CCC1=NN2C(=N)/C(=C\c3cccn3-c3cccc(Cl)c3)C(=O)N=C2S1
  A: u	B: -29.1%	C: u	D: 1.78µM*	E: -12.6%	F: -5.5%
(7) CCC1=NN2C(=N)/C(=C\c3cccn3-c3ccc(C)cc3C)C(=O)N=C2S1
  A: u	B: u	C: -6.8%	D: u	E: -2.1%	F: 6.8%
(8) CCC1=NN2C(=N)/C(=C\c3cccn3-c3c(C)cccc3C)C(=O)N=C2S1
  A: -15.1%[46 µM]	B: u	C: -23.9%	D: -3.6%	E: 56.2µM*	F: -6.8%
(9) CCC(C)NC(=O)Cn1cnc2sc(C)c(S(=O)(=O)N3CCCCC3)c2c1=O (stereo not drawn)
  A: x	B: -7.8%	C: x	D: x	E: 26.3%	F: 3.4%
(10) CC(C)c1ccc(NC(=O)c2cccnc2)cc1
  A: 6.6%	B: 7.4%[59 µM]	C: 7.1%	D: -8.6%	E: 1.9%	F: -44.9%
(11) CC(C)c1ccc(NC(=S)NNC(=O)c2cccnc2)cc1
  A: 29.5%[46 µM]	B: 31.6µM*	C: 10.1%	D: -68.9%	E: 20.7%	F: -28.0%
(12) O=C(NNC(=S)Nc1ccc(Br)cc1)c1cccnc1
  A: x	B: 10µM*	C: x	D: x	E: 21.8%	F: -18.2%
(13) O=C(CN1Cc2ccccc2C1=O)Nc1cc(F)ccc1F
  A: -4.2%[46 µM]	B: -9.9%[59 µM]	C: x	D: x	E: x	F: -4.8%
(14) CCN(CC)S(=O)(=O)c1cccc(NC(=O)CNC2CCCCCC2)c1
  A: x	B: 35.5µM*	C: u	D: x	E: -9.3%	F: 6.1%
(15) COC(=O)c1cccc(NC(=O)NC23CC4CC(CC(C4)C2)C3)c1
  A: 10.2%	B: -9.3%	C: -23.8%	D: 31.6µM*	E: 13.8%	F: -0.2%
(16) CCN(CC)S(=O)(=O)c1cccc(NC(=O)CCNC(=O)NC23CC4CC(CC(C4)C2)C3)c1
  A: x	B: 50.1µM*	C: x	D: x	E: x	F: x
(17) CN(C)S(=O)(=O)c1cccc(NC(=S)NC23CC4CC(CC(C4)C2)C3)c1
  A: x	B: 5.5%	C: x	D: x	E: 16.4%	F: 6.7%
(18) CCN(CC)S(=O)(=O)c1cccc(NC(=O)c2ccccc2Br)c1
  A: -24.7%[46 µM]	B: 27.8%	C: -9.4%	D: 11.2µM*	E: u	F: 0.5%
(19) COC(=O)c1ccc(Cl)c(NC(=O)NC23CC4CC(CC(C4)C2)C3)c1
  A: 11.1%	B: 7.0%[12.7 µM]	C: -2.4%	D: -5.1%	E: 26.5%	F: -1.5%
(20) CCCCN1CC(=O)N2[C@H](c3ccc(OC)cc3)[C@@H]3C(=O)N(CC)C(=O)[C@@H]3[C@]2(C)C1=O
  A: x	B: x	C: x	D: x	E: 11.1%	F: -1.2%
(21) O=C(Nc1ccc(OC(F)(F)F)cc1)C1CCN(S(=O)(=O)c2ccc3[nH]c(=O)ccc3c2)CC1
  A: u	B: 3.8%[59 µM]	C: x	D: x	E: x	F: -1.9%
(22) NS(=O)(=O)c1cccc(NC(=O)CC2(CC(=O)O)CCCC2)c1
  A: x	B: -9.0%	C: x	D: x	E: -5.0%	F: 0.4%
(23) CC1CCC(NCC(=O)Nc2cccc(S(N)(=O)=O)c2)CC1 (stereo not drawn)
  A: -12.0%[46 µM]	B: 10µM*	C: u	D: u	E: -26.5%	F: 0.8%
(24) Cc1ccc(NC(=O)C(Cc2ccccc2)n2cccc2)cc1C (stereo not drawn)
  A: x	B: 3.1%[59 µM]	C: x	D: x	E: x	F: 6.8%
(25) COc1cc(OC)c(NC(=O)Cn2c(=O)nc(-c3ccccc3)c3ccccc32)cc1Cl
  A: x	B: -8.9%[59 µM]	C: x	D: x	E: x	F: 5.3%

Labels used below – A = LMNA splice mod; B = G9a block; C = JMJD2E inh; D = ALDH1A1 block; E = Sfp PPTase inh; F = miR-21 reporter
(26) CCn1c(=O)cc(OCC(=O)NCCc2cccc(C)c2)c2ccccc21
  A: -17.4%[46 µM]	B: -3.1%[59 µM]	C: 3.0%	D: -11.1%	E: 79.4µM*	F: 0.2%
(27) CCn1c(=O)cc(OCC(=O)Nc2ccc(OC)c(OC)c2)c2ccccc21
  A: u	B: 3.1%	C: -5.8%	D: 15.8µM*	E: 13.4%	F: 3.4%
(28) CCN(CCCNC(=O)COc1cc(=O)n(CC)c2ccccc12)c1ccccc1
  A: u	B: 11.2µM*	C: -0.3%	D: 0.6%	E: -15.9%	F: -1.2%
(29) CCN(CCCNC(=O)CNC(=O)Cn1cnc2ccccc2c1=O)c1ccccc1
  A: -1.2%	B: 2.24µM*	C: -6.3%	D: 0.4%	E: -3.0%	F: -4.1%
(30) CCn1c(=O)cc(SCC(=O)NCCc2cccc(C)c2)c2ccccc21
  A: x	B: -35.3%[59 µM]	C: x	D: x	E: x	F: -0.7%
(31) COc1ccc(C)cc1NC(=O)CN1C(=O)COc2ccc(S(=O)(=O)N3CCOCC3)cc21
  A: x	B: 2.6%[59 µM]	C: x	D: x	E: 16.1%	F: -4.8%
(32) COc1ccc(/C=C2\SC(=S)N(CC(=O)NC3C=CS(=O)(=O)C3)C2=O)cc1 (stereo not drawn)
  A: x	B: 13.0%	C: x	D: x	E: -1.7%	F: -0.3%
(33) CCOC(=O)N1C(COCc2ccccc2)C=CCS1(=O)=O (stereo not drawn)
  A: x	B: x	C: x	D: x	E: 27.6%	F: x
(34) Brc1cccc(CSc2nnc(-c3ccncc3)o2)c1
  A: x	B: 44.7µM*	C: 10.9%	D: -6.4%	E: 8.5%	F: 13.6%
(35) c1ccc2c(CSc3nnc(-c4ccncc4)o3)cccc2c1
  A: 12.0%	B: 50.1µM*	C: -7.3%	D: -12.6%	E: u	F: -10.2%
(36) CC(C)c1ccc(S(=O)(=O)NCc2nc3cccnc3n2Cc2ccc(F)cc2)cc1
  A: 18.0%[46 µM]	B: 6.8%[59 µM]	C: x	D: x	E: x	F: 5.4%
(37) CCN(CC)CCNC(=O)c1ccc(NC(=O)c2cn(-c3ccc(F)cc3)nc2-c2cccc(OC)c2)cc1
  A: x	B: -16.8%	C: x	D: x	E: 50.1µM*	F: -2.1%
(38) O=C(O)C1CCCN1C(=O)c1cncc(Br)c1 (stereo not drawn)
  A: 7.3%	B: -4.5%[59 µM]	C: 5.4%	D: 20µM*	E: 17.2%	F: -5.2%
(39) CCN(CC)c1cc(C)c2cc(NC(=O)/C=C/c3cc(OC)c(OC)c(OC)c3)ccc2n1
  A: x	B: u	C: x	D: x	E: x	F: 15.2%
(40) O=C(NN1C(=O)c2ccccc2C1=O)C1C2CCCCC21 (stereo not drawn)
  A: u	B: 2.82µM*	C: -2.9%	D: u	E: -5.8%	F: -0.5%
(41) CCCCCn1c(C(C)NC(=O)c2ccccc2)nc2ccccc21 (stereo not drawn)
  A: x	B: 7.1%[59 µM]	C: x	D: x	E: x	F: 9.2%
(42) COc1ccc(S(=O)(=O)Cc2ccc(C(=O)NCc3ccccn3)o2)cc1
  A: -4.9%	B: u	C: 9.0%	D: -6.2%	E: 11.2%	F: -5.9%
(43) O=C(NCc1ccc(F)cc1)c1ccc(CS(=O)(=O)Cc2ccccc2F)o1
  A: -3.6%[0.0737 µM]	B: 0.0%[0.501 µM]	C: 1.3%	D: 12.6µM*	E: -10.4%	F: 16.6%
(44) Cc1ccc(CS(=O)(=O)Cc2ccc(C(=O)NCc3ccccn3)o2)cc1
  A: 8.6%	B: u	C: 8.2%	D: -13.4%	E: 50.1µM*	F: -1.5%
(45) O=C(NCc1ccc(F)cc1)c1ccc(CS(=O)(=O)Cc2ccc(F)cc2)o1
  A: u	B: -11.4%	C: 5.1%	D: -0.2%	E: 23.6%	F: 13.0%
(46) CCn1cc(C(=O)O)c(=O)c2cnc(N3CCN(C(=S)NC(=O)c4ccc(OC)cc4)CC3)nc21
  A: x	B: -47.1%	C: x	D: x	E: 6.9%	F: -5.6%
(47) O=c1[nH]c2ccccc2[n+]([O-])c1-c1ccccc1
  A: -11.4%[46 µM]	B: 10.0%	C: u	D: u	E: -7.8%	F: -4.6%

One compound at a time (already shown). Order of values: LMNA splice mod	G9a block	JMJD2E inh	ALDH1A1 block	Sfp PPTase inh	miR-21 reporter
c1ccc2c(CSc3nnc(-c4ccncc4)o3)cccc2c1 across the screens: 12.0%	50.1µM*	-7.3%	-12.6%	u	-10.2%
O=C(O)C1CCCN1C(=O)c1cncc(Br)c1 (stereo not drawn) across the screens: 7.3%	-4.5%[59 µM]	5.4%	20µM*	17.2%	-5.2%

From PubChem BioAssay
